Patent US11667675B2, “MASP inhibitory compounds and uses thereof” (Bayer Aktiengesellschaft, priority 2019, dated 2023)
Structures can show the parent of a compound that is named as a salt.

Protein sequences, listed by entry. Tags and fused reporters are not part of them. Residues count along the entry.
UniProt O00187, 297-444: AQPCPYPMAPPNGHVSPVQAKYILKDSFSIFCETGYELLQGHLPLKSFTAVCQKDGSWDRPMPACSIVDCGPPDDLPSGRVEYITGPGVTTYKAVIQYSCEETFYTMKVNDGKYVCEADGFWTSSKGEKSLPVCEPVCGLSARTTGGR
UniProt O00187, 445-686: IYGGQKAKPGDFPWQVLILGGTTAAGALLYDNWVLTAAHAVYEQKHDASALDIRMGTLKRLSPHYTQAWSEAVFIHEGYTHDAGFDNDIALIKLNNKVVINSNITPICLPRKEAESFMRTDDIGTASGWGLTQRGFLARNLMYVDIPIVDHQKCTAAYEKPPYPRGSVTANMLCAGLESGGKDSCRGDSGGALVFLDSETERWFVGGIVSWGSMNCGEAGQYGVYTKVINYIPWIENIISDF
UniProt Q9JJS8, 444-685: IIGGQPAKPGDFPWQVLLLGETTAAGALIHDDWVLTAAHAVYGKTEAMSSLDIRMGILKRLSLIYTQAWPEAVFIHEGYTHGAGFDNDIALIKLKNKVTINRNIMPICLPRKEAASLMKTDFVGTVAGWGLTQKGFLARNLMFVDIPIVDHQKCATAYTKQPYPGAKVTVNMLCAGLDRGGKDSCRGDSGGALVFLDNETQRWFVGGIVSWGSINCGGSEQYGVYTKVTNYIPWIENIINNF
UniProt Q9JJS8, 296-443: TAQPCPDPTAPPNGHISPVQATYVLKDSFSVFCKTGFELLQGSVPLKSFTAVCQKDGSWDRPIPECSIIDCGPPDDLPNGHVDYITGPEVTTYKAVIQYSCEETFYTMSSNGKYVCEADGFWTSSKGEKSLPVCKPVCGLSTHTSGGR

What was measured:
human MASP2 = target: T1, human MASP2 (Homo sapiens, UniProt O00187); assay: Biochemical human MASP2 assay (FRET substrate); conditions: average IC50
T1 construct: Ig-kappa secretion signal (N, cleaved yes); made in house; host or cells: HEK293 (ATCC No. CRL-1573)
Excerpt: (§1) 2.1 Recombinant Expression and Protein Production of Recombinant Human MASP1 and MASP2 Active Proteases.
(§2) The MASP1 or MASP2 expression vectors were transfected into the HEK293 (ATCC No. CRL-1573) cell line using Lipofectamine LTX® Reagent (Thermo-Fischer), as described by the manufacturer. […] The MASP1 and MASP2 proteins were purified from the conditioned media by affinity chromatography on Ni-NTA Superflow resin (Qiagen) as described by the manufacturer.
2.3 Biochemical Human MASP2 Assay
(§3) Recombinant human MASP2 enzyme produced in the HEK 293 cells was diluted in the reaction buffer (50 mM HEPES pH 8,0; 100 mM NaCl; 0.01% CHAPS; 0.5 mM Gluthathione) to the concentration of 20 nM and 25 μl was transferred into each single well of 384-well white microtiter plate (Greiner Bio One 781075). 1 μl of the inhibitor compound solution (dissolved in DMSO, at the corresponding concentration) or pure DMSO as a control was added to the same wells. […] The microtiter plate was incubated for 60-120 min at the temperature of 32 C. The increase of fluorescence intensity was measured in appropriate fluorescence plate reader (e.g. TECAN Ultra) using excitation wavelength of 340 nm and emission wavelength of 490 nm. IC50 values were calculated from percentage of inhibition of human MASP2 activity as a function of test compound concentration.

human MASP1 = target: T2, human MASP1 (Homo sapiens, UniProt P48740); assay: Biochemical human MASP1 assay (FRET substrate); conditions: average IC50
T2 construct: Ig-kappa secretion signal (N, cleaved yes); made in house; host or cells: HEK293 (ATCC No. CRL-1573)
T2 sequence (P48740 297-448): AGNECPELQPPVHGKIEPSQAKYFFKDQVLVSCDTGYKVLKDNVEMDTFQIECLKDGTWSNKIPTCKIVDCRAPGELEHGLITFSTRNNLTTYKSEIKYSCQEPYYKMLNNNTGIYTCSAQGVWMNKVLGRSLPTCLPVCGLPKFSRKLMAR
T2 sequence (P48740 449-699): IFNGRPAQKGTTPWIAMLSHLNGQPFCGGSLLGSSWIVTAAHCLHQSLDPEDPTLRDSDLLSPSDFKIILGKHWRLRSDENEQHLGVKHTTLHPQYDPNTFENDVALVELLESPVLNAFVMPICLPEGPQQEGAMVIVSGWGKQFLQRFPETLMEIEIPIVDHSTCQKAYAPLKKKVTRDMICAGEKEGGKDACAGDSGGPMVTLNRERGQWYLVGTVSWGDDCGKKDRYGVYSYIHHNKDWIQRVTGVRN
Excerpt: as §1, §2
2.2 Biochemical Human MASP1 Assay
as §3, with “MASP1” for “MASP2”, “320” for “340”, “420” for “490”

rat MASP2 = target: T3, rat MASP2 (Rattus norvegicus, UniProt Q9JJS8); assay: Biochemical rat MASP2 assay (FRET substrate); conditions: average IC50; recombinant rat MASP2, FRET substrate
T3 construct: Ig-kappa secretion signal (N, cleaved yes); made in house; host or cells: HEK293 (ATCC No. CRL-1573)
Excerpt: (§4) 4. Biochemical Rat MASP-1 and MASP-2 Assay
(§5) 4.1 Recombinant Expression and Protein Production of Recombinant Human and Rat MASP1 and MASP2 Active Proteases.
A truncated cDNA sequence of rat MASP2 encoding the fragment corresponding to the amino acids 296-685 with a C-terminal His Tag and N-terminal Ig-kappa secretion signal (SEQ ID No: 5) was subcloned into the mammalian expression vector pcDNA3.1 (Invitrogen).
(§6) The MASP1 or MASP2 expression vectors were transfected into the HEK293 (ATCC No. CRL-1573) cell line using Lipofectamine LTX® Reagent (Thermo-Fischer), as described by the manufacturer. The mature form of the recombinant rat MASP1 and MASP2 proteases were secreted into the culture medium. The MASP1 and MASP2 proteins were purified from the conditioned media by affinity chromatography on Ni-NTA Superflow resin (Qiagen) as described by the manufacturer.
4.3 Biochemical Rat MASP2 Assay.
Recombinant rat MASP2 enzyme produced in the HEK 293 cells was diluted in the reaction buffer (50 mM HEPES pH 8,0; 100 mM NaCl; 0.01% CHAPS; 0.5 mM Gluthathione) to the concentration of 20 nM and 25 μl was transferred into each single well of 384-well white microtiter plate (Greiner Bio One 781075). 1 μl of the inhibitor compound solution (dissolved in DMSO, at the corresponding concentration) or pure DMSO as a control was added to the same wells. The enzymatic reaction was initiated by addition of 25 μl of 30 μM solution of the FRET substrate Abz-IEGRTSED-(Lys)Dnp-NH2 (SEQ ID NO: 9); (ABZ—2-aminobenzoyl; DNP_2,4-dinitrophenyl; custom synthesis by Jerini Peptide Technologies, Berlin) in the reaction buffer. The microtiter plate was incubated for 60-120 min at the temperature of 32 C. The increase of fluorescence intensity was measured in appropriate fluorescence plate reader (e.g. TECAN Ultra) using excitation wavelength of 320 nm and emission wavelength of 420 nm. IC50 values were calculated from percentage of inhibition of rat […] activity as a function of test compound concentration.

rat MASP1 = target: T4, rat MASP1 (Rattus norvegicus, UniProt Q8CHN8); assay: Biochemical rat MASP1 assay (FRET substrate); conditions: average IC50; recombinant rat MASP1, FRET substrate
T4 construct: Ig-kappa secretion signal (N, cleaved yes); made in house; host or cells: HEK293 (ATCC No. CRL-1573)
T4 sequence (Q8CHN8 302-453 limits assumed): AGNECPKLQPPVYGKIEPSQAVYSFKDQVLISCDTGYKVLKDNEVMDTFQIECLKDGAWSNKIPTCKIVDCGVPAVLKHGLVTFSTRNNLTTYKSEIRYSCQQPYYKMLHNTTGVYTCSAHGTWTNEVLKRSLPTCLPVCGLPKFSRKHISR
T4 sequence (Q8CHN8 454-704 limits assumed): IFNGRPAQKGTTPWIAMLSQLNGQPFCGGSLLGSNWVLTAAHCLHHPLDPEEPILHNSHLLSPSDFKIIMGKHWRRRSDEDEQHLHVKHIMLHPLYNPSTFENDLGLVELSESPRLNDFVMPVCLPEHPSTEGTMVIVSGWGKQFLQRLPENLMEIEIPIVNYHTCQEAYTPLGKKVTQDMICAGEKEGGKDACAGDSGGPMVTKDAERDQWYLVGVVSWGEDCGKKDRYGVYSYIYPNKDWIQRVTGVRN
Excerpt: as §4, §5
A truncated cDNA sequence of rat MASP1 encoding the fragment corresponding to the amino acids 302-704 with an C-terminal His Tag and N-terminal Ig-kappa secretion signal (SEQ ID No: 4) was subcloned into the mammalian expression vector pcDNA3.1 (Invitrogen).
as §6
4.2 Biochemical Rat MASP1 Assay.
Recombinant rat MASP1 enzyme produced in the HEK 293 cells was diluted in the reaction buffer (50 mM HEPES pH 8,0; 100 mM NaCl; 0.01% CHAPS; 0.5 mM Gluthathione) to the concentration of 4 nM and 25 μl was transferred into each single well of 384-well white microtiter plate (Greiner Bio One 781075). 1 μl of the inhibitor compound solution (dissolved in DMSO, at the corresponding concentration) or pure DMSO as a control was added to the same wells. The enzymatic reaction was initiated by addition of 25 μl of 40 μM solution of the FRET substrate Dabcyl-[…]-Glu(Edans)-NH2 (SEQ ID NO: 8); (Dabcyl—4-((4-(dimethylamino)phenyl)azo)benzoic acid; Edans—5-[(2-Aminoethyl) amino]naphthalene-1-sulfonyl; custom synthesis by Jerini Peptide Technologies, Berlin) in the reaction buffer. The microtiter plate was incubated for 60-120 min at the temperature of 32 C. The increase of fluorescence intensity was measured in appropriate fluorescence plate reader (e.g. TECAN Ultra) using excitation wavelength of 340 nm and emission wavelength of 490 nm. IC50 values were calculated from percentage of inhibition of rat […] activity as a function of test compound concentration.

## N-[(5aS,11S,14S,17S,20S,23R,28R,31S,33aS)-31-[(2S)-butan-2-yl]-17-(3-carbamimidamidopropyl)-11-(2,2-dimethylpropyl)-14,20-bis(hydroxymethyl)-27,27-dimethyl-23-({N-[(morpholin-4-yl)acetyl]-L-isoleucyl}amino)-5,10,13,16,19,22,30,33-octaoxooctacosahydro-1H,5H,10H-dipyrrolo[2,1-j:2′,1′][1,2,5,8,11,14,17,20,23,26]dithiaoctaazacyclononacosine-28-carbonyl]-L-isoleucyl-L-prolyl-L-alpha-asparagine [Example 283]
Human MASP2
  IC50: 42 nM
Human MASP1
  IC50: 15 nM

## CC[C@H](C)[C@H](NC(=O)[C@H](C)N)C(=O)N[C@H]1CSSC(C)(C)[C@@H](C(=O)N[C@H](C(=O)N2CCC[C@H]2C(=O)N[C@@H](CC(=O)O)C(N)=O)[C@@H](C)CC)NC(=O)[C@H]([C@@H](C)CC)NC(=O)[C@@H]2C[C@@H]3CCCC[C@@H]3N2C(=O)[C@@H]2CCCN2C(=O)[C@H](CC(C)C)NC(=O)[C@H](CO)NC(=O)[C@H](CCCNC(=N)N)NC(=O)[C@H](CO)NC1=O [Example 75, AIC+SRSLP-(Oic)-I-(Pen)+IPD-NH2]
Human MASP2
  IC50: 150 nM

## AIC+SRSLP-(Oic)-I-(Pen)+IPD-OH [Example 5]
Human MASP2
  IC50: 97 nM
Rat MASP2
  IC50: 49 nM
Rat MASP1
  IC50: 28 nM
Human MASP1
  IC50: 0.96 nM

## (2-Hydroxyacetyl)-IC+SRS-((tBu)A)-PPI-(Pen)+IPD-NH2 [Example 300]
Human MASP2
  IC50: 45 nM
Human MASP1
  IC50: 18 nM

## PIC+SRS-((tBu)A)-PPI-(Pen)+IPD-NH2 [Example 9]
Human MASP2
  IC50: 50 nM
Human MASP1
  IC50: 1.14 nM

## ((N-Me)G)-IC+SRSLP-(Oic)-I-(Pen)+IPD-NH2 [Example 165]
Human MASP2
  IC50: 150 nM
Human MASP1
  IC50: 4.05 nM

## CC[C@H](C)[C@@H]1NC(=O)[C@@H]2CCCN2C(=O)[C@@H]2CCCN2C(=O)[C@H](CC(C)(C)C)NC(=O)[C@H](CO)NC(=O)[C@H](CCCNC(=N)N)NC(=O)[C@H](CO)NC(=O)[C@@H](NC(=O)[C@@H](NC(=O)C(C)(C)CN)[C@@H](C)CC)CSSC(C)(C)[C@@H](C(=O)N[C@H](C(=O)N2CCC[C@H]2C(=O)N[C@@H](CC(=O)O)C(N)=O)[C@@H](C)CC)NC1=O [Example 166, (3-Amino-2,2-dimethylpropionic acid)-IC+SRS-((tBu)A)-PPI-(Pen)+IPD-NH2]
Human MASP2
  IC50: 130 nM

## AIC+SRSLP-(Oic)-I-(Pen)+IPD-NH2 [Example 27]
Human MASP2
  IC50: 140 nM
Rat MASP2
  IC50: 9.1 nM
Rat MASP1
  IC50: 9.81 nM
Human MASP1
  IC50: 1.5 nM

## CC[C@H](C)[C@H](NC(=O)CNC)C(=O)N[C@H]1CSSC(C)(C)[C@@H](C(=O)N[C@H](C(=O)N2CCC[C@H]2C(=O)NCCOCCOCCOCCOCCOCCOCCOCCOCCOCCC(N)=O)[C@@H](C)CC)NC(=O)[C@H]([C@@H](C)CC)NC(=O)[C@@H]2CCCN2C(=O)[C@@H]2CCCN2C(=O)[C@H](CC(C)(C)C)NC(=O)[C@H](CO)NC(=O)[C@H](CCCNC(=N)N)NC(=O)[C@H](CO)NC1=O [Example 44, ((N-Me)G)-IC+SRS-((tBu)A)-PPI-(Pen)+IP-(PEG9(31 Atoms))-NH2]
Human MASP1
  IC50: 1.8 nM

## CC[C@H](C)[C@H](NC(=O)[C@H](C)N)C(=O)N[C@H]1CSSC(C)(C)[C@@H](C(=O)N[C@H](C(=O)N2CCC[C@H]2C(=O)N[C@@H](CC(=O)O)C(=O)O)[C@@H](C)CC)NC(=O)[C@H]([C@@H](C)CC)NC(=O)[C@@H]2C[C@@H]3CCCC[C@@H]3N2C(=O)[C@@H]2CCCN2C(=O)[C@H](CC(C)C)NC(=O)[C@H](CO)NC(=O)[C@H](CCCNC(=N)N)NC(=O)[C@H](CO)NC1=O [Example 29, AIC+SRSLP-(Oic)-I-(Pen)+IPD-OH (HCl Salt)]
Human MASP2
  IC50: 42 nM

## AIC+SRS-((tBu)A)-PPI-((N-Me)C)+IPD-NH2 (HCl Salt) [Example 30]
Human MASP2
  IC50: 140 nM
Rat MASP1
  IC50: 28 nM
Human MASP1
  IC50: 1.53 nM

## AIC+SRSLP-(Oic)-I-(Pen)+IPN-OH [Example 418]
Human MASP2
  IC50: 130 nM
Human MASP1
  IC50: 1.8 nM

## CCC(C)[C@H](NC(=O)[C@H]1NC(=O)[C@H]([C@@H](C)CC)NC(=O)[C@@H]2C[C@@H]3CCCC[C@@H]3N2C(=O)[C@@H]2CCCN2C(=O)[C@H](CC(C)C)NC(=O)[C@H](CO)NC(=O)[C@H](CCCNC(=N)N)NC(=O)[C@H](CO)NC(=O)[C@@H](NC(=O)[C@@H](NC(=O)[C@H](C)NC)[C@@H](C)CC)CSSC1(C)C)C(=O)N1CCC[C@H]1C(=O)N[C@@H](CC(=O)NCc1ccccc1)C(N)=O (stereo in doubt) [Example 462]
Human MASP2
  IC50: 130 nM
